Reference: US10975056B2 (GlaxoSmithKline Intellectual Property Development Limited, priority 2016, dated 2021)

Sequences of proteins named here, by UniProt entry; tags and fusion partners are left off.
UniProt P26358, whole entry: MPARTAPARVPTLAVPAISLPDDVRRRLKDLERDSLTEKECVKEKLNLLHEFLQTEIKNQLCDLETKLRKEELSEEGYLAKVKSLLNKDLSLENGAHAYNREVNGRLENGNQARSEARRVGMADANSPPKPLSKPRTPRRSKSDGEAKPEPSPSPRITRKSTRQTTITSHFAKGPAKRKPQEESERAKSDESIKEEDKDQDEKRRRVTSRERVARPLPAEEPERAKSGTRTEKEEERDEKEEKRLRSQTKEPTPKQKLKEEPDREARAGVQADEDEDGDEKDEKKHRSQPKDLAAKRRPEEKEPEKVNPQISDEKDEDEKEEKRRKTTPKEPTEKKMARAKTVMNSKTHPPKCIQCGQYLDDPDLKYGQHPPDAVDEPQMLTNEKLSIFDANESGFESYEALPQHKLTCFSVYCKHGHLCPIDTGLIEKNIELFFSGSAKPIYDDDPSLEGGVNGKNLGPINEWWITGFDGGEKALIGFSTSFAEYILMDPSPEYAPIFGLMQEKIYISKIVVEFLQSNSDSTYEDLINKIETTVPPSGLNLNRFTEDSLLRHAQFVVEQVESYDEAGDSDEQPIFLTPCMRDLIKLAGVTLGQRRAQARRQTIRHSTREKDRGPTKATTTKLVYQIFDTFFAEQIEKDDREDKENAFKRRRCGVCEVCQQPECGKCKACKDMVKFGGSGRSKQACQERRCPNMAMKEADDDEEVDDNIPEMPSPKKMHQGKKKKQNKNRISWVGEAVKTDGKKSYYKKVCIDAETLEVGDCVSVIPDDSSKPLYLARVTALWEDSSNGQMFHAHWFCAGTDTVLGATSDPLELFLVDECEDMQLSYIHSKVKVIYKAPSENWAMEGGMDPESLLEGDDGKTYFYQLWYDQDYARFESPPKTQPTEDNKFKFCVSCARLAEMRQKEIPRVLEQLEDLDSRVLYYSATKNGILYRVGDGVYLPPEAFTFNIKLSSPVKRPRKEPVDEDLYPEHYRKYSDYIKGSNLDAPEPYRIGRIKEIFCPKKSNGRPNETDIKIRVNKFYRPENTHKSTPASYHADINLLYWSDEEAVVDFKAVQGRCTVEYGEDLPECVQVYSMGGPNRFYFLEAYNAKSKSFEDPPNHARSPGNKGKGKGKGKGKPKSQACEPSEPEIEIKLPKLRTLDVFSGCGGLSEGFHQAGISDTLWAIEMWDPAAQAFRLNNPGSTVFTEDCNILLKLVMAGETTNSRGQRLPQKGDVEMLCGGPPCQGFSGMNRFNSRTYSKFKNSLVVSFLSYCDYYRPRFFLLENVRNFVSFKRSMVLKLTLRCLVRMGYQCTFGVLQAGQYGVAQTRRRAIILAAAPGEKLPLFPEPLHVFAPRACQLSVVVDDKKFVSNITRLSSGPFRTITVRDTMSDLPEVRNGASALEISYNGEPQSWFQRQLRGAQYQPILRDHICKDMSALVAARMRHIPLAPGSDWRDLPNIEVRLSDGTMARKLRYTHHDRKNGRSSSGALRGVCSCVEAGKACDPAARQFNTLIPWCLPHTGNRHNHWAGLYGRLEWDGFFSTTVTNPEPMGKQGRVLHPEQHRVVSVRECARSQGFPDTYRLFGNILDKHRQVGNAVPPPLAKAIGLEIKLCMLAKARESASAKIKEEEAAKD

Assays:
[1] = system: erythroid progenitor cells (EPCs); experiment: Fetal hemoglobin (HbF) ELISA in day 7 erythroid progenitor cells; details: day 7 EPCs, 5 days;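 also: for fetal hemoglobin induction normalized to vehicle-treated cells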
[2] = biological target: DNMT1 (Homo sapiens, UniProt P26358); experiment: DNMT1 biochemical activity, breaklight assay and/or SPA assay; details: binned activity in either the breaklight or the SPA assay

SMILES: CCc1c(C#N)c(SC(C(N)=O)c2ccccc2)nc(N(C)CCNC(=O)C(N)=O)c1C#N (centres unmarked)
- EPC ELISA (pEC50 category) [1]: C (Category C: 6.0 ≤ x < 6.5)
- DNMT1 BioChemical (pIC50 category) [2]: D (Category D: ≥6.5)
